The results in this text go back to ChEMBL document CHEMBL3862039, “Identification of Triptophenolide from Tripterygium wilfordii as a Pan-antagonist of Androgen Receptor” (ACS Med Chem Lett, 2016).

Sequences of proteins named here, by UniProt entry; tags and fusion partners are left off. A change or cut given only in a name is not applied to a line headed by its entry.
UniProt P10275: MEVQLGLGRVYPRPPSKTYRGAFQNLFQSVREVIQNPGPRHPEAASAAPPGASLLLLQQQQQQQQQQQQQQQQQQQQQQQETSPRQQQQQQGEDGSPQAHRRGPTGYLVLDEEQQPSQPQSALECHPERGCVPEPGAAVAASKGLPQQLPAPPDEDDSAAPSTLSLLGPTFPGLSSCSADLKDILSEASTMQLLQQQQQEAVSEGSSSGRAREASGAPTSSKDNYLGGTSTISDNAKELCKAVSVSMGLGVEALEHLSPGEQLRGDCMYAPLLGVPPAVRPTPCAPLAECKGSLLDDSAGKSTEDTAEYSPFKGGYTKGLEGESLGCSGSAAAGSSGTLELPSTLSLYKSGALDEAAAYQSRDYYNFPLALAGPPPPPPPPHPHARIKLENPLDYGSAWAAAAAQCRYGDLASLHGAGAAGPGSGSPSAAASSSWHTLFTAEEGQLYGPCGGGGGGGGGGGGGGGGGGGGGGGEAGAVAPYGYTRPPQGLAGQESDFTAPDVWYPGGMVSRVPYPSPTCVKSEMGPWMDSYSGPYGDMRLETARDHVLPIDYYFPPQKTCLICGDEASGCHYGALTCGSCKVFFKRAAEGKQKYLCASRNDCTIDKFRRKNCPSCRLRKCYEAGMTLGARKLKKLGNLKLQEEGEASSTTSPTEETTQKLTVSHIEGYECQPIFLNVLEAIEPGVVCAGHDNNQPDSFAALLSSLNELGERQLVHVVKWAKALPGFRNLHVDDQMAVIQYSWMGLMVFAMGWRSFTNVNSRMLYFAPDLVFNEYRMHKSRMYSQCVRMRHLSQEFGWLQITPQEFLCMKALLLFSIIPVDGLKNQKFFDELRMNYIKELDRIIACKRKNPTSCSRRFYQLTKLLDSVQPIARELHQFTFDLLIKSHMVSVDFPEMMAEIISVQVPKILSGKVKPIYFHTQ

Each structure is given as a SMILES string.

The target in one test is Androgen receptor (Homo sapiens, UniProt P10275). Briefly: Inhibition of DHT-induced AR nuclear translocation in human LNCAP cells assessed as reduction in ratio of nuclear to cytoplasmic AR levels at 5 uM after 24 hrs by DAPI-staining based confocal microscopic analysis relative DHT. The test is classed as cell-based.
For the next test, the system named is PC-3. Kind of test: Antagonist activity at AR W741C/T877A double mutant (unknown origin) transfected in human PC3 cells assessed as inhibition of DHT-induced receptor transcriptional activation after 24 hrs by PSA-luciferase reporter gene assay. It counts as cell-based. In general terms: In a reporter assay the amount or activity of a reporter protein is the signal.

For `CC(C)c1ccc2c(c1O)CC[C@H]1C3=C(CC[C@]21C)C(=O)OC3` [TRIPTOPHENOLIDE], on Androgen receptor, the fold change (FC) was determined as 3. Also, the inhibition entry in the test with PC-3 was “Dose-dependent effect”.
